ERp5 inh – inhibitors of human ERp5 | inhibition, % at 9.99 µM | ERp5 insulin aggregation, absorbance 650 nm, 90 min | 350,000 tested, 0.05% active;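 active = mean replicate inhibition above about 25%, with every replicate also reaching it, limit read from the data, passing the limit was not always enough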
Yeast UUG start-1 – modulators of start codon recognition fidelity in yeast; AID 602363; activity score, % at 18.7 µM; S. cerevisiae UUG-firefly luciferase reporter, luminescence/redox ratio; 0.13% of 350,000 active;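 active = replicate mean at a twofold rise or more, about +100% in these data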;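 note: firefly luciferase made from a UUG start codon reports start codon fidelity; reporter light over untreated wells divided by growth signal over untreated wells; some hits fall short of that in this replicate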
INS-1E GSIS act – primary screen for activators of insulin secretion dependent on glucose, INS-1E cells, GLuc reporter luminescence. AID 743287. INS-1E GLuc reporter insulin secretion, 2-3 h. 370,000 tested, 0.61% active. activation, % at 16.6 µM;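 active = lowest replicate activation of at least 40%, so every replicate reaches that level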
PDI turbidity – blocks human protein disulfide isomerase activity. P07237. PDI insulin aggregation turbidity, A650, 90 min. inhibition, % at 10 µM. 350,000 tested, 0.052% active. AID 588391;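 active = mean inhibition across replicates of 30% or more, whatever share of single replicates reach that level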
Rev-erbA mod – modulates human Rev-erb alpha binding to DNA | P20393 | Rev-erbα–FITC-DNA binding, fluorescence polarization, 90 min | activity, % at 10 µM | 370,000 tested, 0.79% active;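 active = activity above about 14%, limit read from the data; passing the limit was not always enough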
SMARCA2 activ – increases SMARCA2 function in MMTV reporter cells; MG213 cells, MMTV-luciferase reporter, dexamethasone, overnight; activation, % at 9.1 µM; 370,000 tested, 1% active; AID 652017; in the data active = activation above about 7.8%
Yeast UUG start-2 – alters UUG start codon use in yeast. shares compounds with Yeast UUG start-1. S. cerevisiae UUG-start firefly luciferase, luminescence, 4 h; 100% means double the DMSO signal. activation, % at 38 µM. 540 tested, under 10 active. AID 652061;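 active = signal increase whose fitted curve reaches an absolute level of 40 at a concentration under 10 µM; inactive = activity opposite to the expected increase, or the rest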
SMARCA2 conf – SMARCA2 activation, confirmation screen. activation, % at 9.1 µM. shares compounds with SMARCA2 activ. MG213 cells, MMTV-luciferase with dexamethasone, luminescence, overnight; MG213 cells expressing E1A, Rb sequestered; DMSO wells 0%, reference activator 100%. 3,500 tested, 30% active;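 active = activation above its plate's cutoff, the mean activation of tested wells plus 3 SD, cut at about 7.9% in these data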
GAL4-VP16 Luc – activates GAL4-VP16 luciferase, flagging SMARCA2 activator hits. shares compounds with SMARCA2 activ. HEK293 GAL4-VP16 pG5luc reporter, luciferase luminescence; scaled: DMSO wells 0%, SAHA wells 100%. activation, % at 9.1 µM. 3,500 tested, 41% active;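 active = activation above the solvent-only control well mean plus 3 SD, averaged across control plates, cut at about 5.2% in these data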
Hits are given with their value; i = inactive; nt = no result given. Hits are enriched below; roughly 2.1% of the tested compounds scored in any of these assays.

SMILES | ERp5 inh | Yeast UUG start-1 | INS-1E GSIS act | PDI turbidity | Rev-erbA mod | SMARCA2 activ | SMARCA2 conf | GAL4-VP16 Luc | others
Fc1ccc(NC(=S)NCc2cccs2)cc1 | nt | 253 | i | i | i | i | nt | nt | Yeast UUG start-2=i
CC(O)(C#CCN1CCCC1)c1ccccc1 (stereo not drawn) | nt | i | i | i | i | i | nt | nt | Yeast UUG start-2=i
OC(C#CCN1CCCC1)(c1ccccc1)c1cccc(F)c1 (stereo not drawn) | nt | nt | i | i | i | i | nt | nt | Yeast UUG start-2=i
C[C@@H]1CN([C@@H](C)CO)S(=O)(=O)c2ccc(C#CC3CC3)cc2O[C@@H]1CN(C)Cc1cccc(F)c1 | i | 130 | i | nt | nt | nt | nt | nt | Yeast UUG start-2=i
C[C@H]1CN([C@@H](C)CO)S(=O)(=O)c2ccc(C#Cc3cccc(F)c3)cc2O[C@@H]1CN(C)C | i | 107 | i | nt | nt | nt | nt | nt | Yeast UUG start-2=i
C[C@H]1CN([C@@H](C)CO)S(=O)(=O)c2ccc(C#CC3CC3)cc2O[C@@H]1CN(C)Cc1cccc(F)c1 | i | i | i | nt | nt | nt | nt | nt
O=C(CCCCCCC(=O)Nc1ccc(CO)cc1)NOCc1ccccc1 | i | i | nt | nt | nt | nt | nt | nt
CCN(CC)c1ccc(-c2nc3cnccn3c2NC2CCCC2)cc1 | nt | 181 | nt | i | i | i | nt | nt | Yeast UUG start-2=i
c1cn2c(NC3CCCCC3)c(-c3ccc(SC4CCCCC4)cc3)nc2cn1 | i | i | i | i | i | i | nt | nt
COc1c(C)cccc1C(=O)NCc1ccc2c(c1)OCO2 | i | active | i | i | i | i | nt | nt | Yeast UUG start-2=i
Cc1c(C(=O)NCc2ccc3c(c2)OCO3)cccc1[N+](=O)[O-] | i | nt | i | i | i | i | nt | nt
CC1(C)CC(=O)C2=C(C1)NC(=S)C(C#N)C21CCCCC1 (stereo not drawn) | i | 110 | i | i | i | i | nt | nt | Yeast UUG start-2=i
O=C(NCCCN1CCCC1)c1cc2c(Cl)nc3ccccc3c2s1 | i | 486 | i | i | i | i | nt | nt | Yeast UUG start-2=i
CC1CCN(CCCNC(=O)c2cc3c(Cl)nc4ccccc4c3s2)CC1 | i | i | i | i | i | i | nt | nt
CCCNC(=O)N1CC2(CN(Cc3ccc(OC)cc3)C2)c2c(n(C)c3cc(OC)ccc23)[C@H]1CO | nt | nt | i | nt | nt | nt | nt | nt
CC(C)CNC(=O)c1cccc(NC(=O)Cc2ccc(Cl)cc2)c1 | nt | 249 | i | i | i | i | nt | nt | Yeast UUG start-2=i
C[C@@H]1CCCCO[C@H](CN(C)C(=O)NC2CCCCC2)[C@@H](C)CN([C@@H](C)CO)C(=O)c2cc(NC(=O)Nc3ccc(C(F)(F)F)cc3)ccc2O1 | i | i | i | nt | nt | nt | nt | nt
C[C@H]1CN([C@@H](C)CO)C(=O)c2cc(NC(=O)Cc3cn(C)c4ccccc34)ccc2O[C@@H]1CN(C)C(=O)NC1CCCCC1 | i | i | i | nt | nt | nt | nt | nt
Cc1c(C(=O)OCC(=O)c2ccc3c(c2)OCCO3)oc2ccccc12 | nt | i | nt | i | i | 8.0 | i | i | Yeast UUG start-2=i
Cc1ccc(S(=O)(=O)N(C)C[C@@H]2Oc3cc(C#Cc4ccncc4)ccc3S(=O)(=O)N([C@@H](C)CO)C[C@@H]2C)cc1 | i | nt | i | nt | nt | nt | nt | nt
COc1ccc2c(CC(=O)Nc3ncc(C)s3)coc2c1 | i | i | i | i | i | 29 | 42 | i
COc1ccc2c(CC(=O)Nc3nc(C)cs3)coc2c1 | i | nt | i | i | i | i | nt | nt
C[C@H]1CCCCO[C@H](CN(C)CC2CC2)[C@@H](C)CN([C@@H](C)CO)C(=O)c2cc(NC(=O)Nc3ccc4c(c3)OCO4)ccc2O1 | i | nt | i | nt | nt | nt | nt | nt
Cc1noc(C)c1S(=O)(=O)Nc1cccc2c1O[C@H](CN(C)S(=O)(=O)c1cn(C)cn1)[C@H](C)CN([C@H](C)CO)C2=O | i | i | i | nt | nt | nt | nt | nt
O=C(Oc1ccccc1Cl)c1ccc(-n2cncn2)nc1 | nt | i | nt | i | i | 8.2 | i | i
SMILES | ERp5 inh | Yeast UUG start-1 | INS-1E GSIS act | PDI turbidity | Rev-erbA mod | SMARCA2 activ | SMARCA2 conf | GAL4-VP16 Luc | others
Cc1noc(C)c1NC(=O)Nc1ccc2c(c1)CC(=O)N([C@H](C)CO)C[C@H](C)[C@@H](CN(C)S(=O)(=O)c1cccs1)O2 | i | i | i | nt | nt | nt | nt | nt
O=C(NCC[C@H]1CC[C@H](NS(=O)(=O)c2cccc(Cl)c2)[C@@H](CO)O1)c1cnccn1 | i | i | i | nt | nt | nt | nt | nt
Cc1cc(Nc2cccc([N+](=O)[O-])c2)c2ccccc2n1 | i | nt | i | i | i | i | nt | nt
CCOc1ccc2nc(C)cc(Nc3cccc([N+](=O)[O-])c3)c2c1 | i | nt | nt | i | i | 14 | 32 | i
CC(C)NC(=O)NCC[C@@H]1CC[C@@H](NS(=O)(=O)c2ccccc2)[C@@H](CO)O1 | i | nt | i | nt | nt | nt | nt | nt
CC(C)C#Cc1cnc2c(c1)C(=O)N([C@H](C)CO)C[C@@H](C)[C@H](CN(C)C(=O)c1cnccn1)O2 | i | i | i | nt | nt | nt | nt | nt
COc1cc2ccccc2cc1C(=O)Nc1ccc(N2CCN(C)CC2)cc1 | i | i | i | i | i | 19 | 9.7 | 8.8
COC(=O)c1ccc(CC(=O)c2nc3ccccc3s2)cc1 | nt | i | i | i | i | 10 | 8.8 | 6.9
COC(=O)c1ccc(CSc2nc3ccccc3s2)o1 | i | i | i | i | nt | 14 | i | i
Cc1cccc2nc(-c3ccco3)c(Nc3ccc4c(c3)OCCO4)n12 | i | nt | i | i | i | 10 | i | i
CC(C)(C)c1nnc(NC(=O)c2ccc3c(c2)OCO3)s1 | i | i | i | i | i | 10 | 8.4 | 6.4
CC(C)c1nnc(NC(=O)c2ccc3c(c2)OCO3)s1 | i | nt | i | i | i | i | nt | nt
COc1ccc(-n2nnnc2S(=O)(=O)Cc2ccc(C(=O)O)cc2)cc1 | nt | i | nt | i | i | 13 | 15 | i
COc1ccc(C(=O)OCCc2ccc(O)cc2)cc1 | i | i | nt | i | i | 9.2 | 8.6 | 12
Cc1nnc(NC(=O)c2cc(S(=O)(=O)N(C)C)ccc2N2CCCC2)s1 | i | i | i | i | i | 9.1 | i | i
COC(=O)c1cc(S(=O)(=O)N2CCCC2=O)c(Cl)cc1Cl | i | i | i | i | i | 8.0 | i | i
COc1ccc(Cl)cc1S(=O)(=O)N1CCCC1=O | i | nt | i | i | i | i | nt | nt
CCOC(=O)c1ccc2ncc(C(=O)OCC)c(NCc3ccco3)c2c1 | nt | i | nt | i | i | 13 | i | i
CCOC(=O)c1cnc2c(C)cccc2c1NCc1ccco1 | nt | i | nt | i | i | i | nt | nt
CCOC(=O)c1cnc2c(C(=O)OC)cccc2c1NCc1ccco1 | nt | i | nt | i | i | 8.0 | i | i
CCOC(=O)c1cnc2ccccc2c1NCCO | nt | i | nt | i | i | i | nt | nt
CCOC(=O)c1cnc2c(ccc3ccccc32)c1NCCCN(C)C | i | i | nt | i | i | 19 | 40 | 8.1
